By UniProt entry, the sequences of proteins in these tests, tags left out.
UniProt P05177, whole entry: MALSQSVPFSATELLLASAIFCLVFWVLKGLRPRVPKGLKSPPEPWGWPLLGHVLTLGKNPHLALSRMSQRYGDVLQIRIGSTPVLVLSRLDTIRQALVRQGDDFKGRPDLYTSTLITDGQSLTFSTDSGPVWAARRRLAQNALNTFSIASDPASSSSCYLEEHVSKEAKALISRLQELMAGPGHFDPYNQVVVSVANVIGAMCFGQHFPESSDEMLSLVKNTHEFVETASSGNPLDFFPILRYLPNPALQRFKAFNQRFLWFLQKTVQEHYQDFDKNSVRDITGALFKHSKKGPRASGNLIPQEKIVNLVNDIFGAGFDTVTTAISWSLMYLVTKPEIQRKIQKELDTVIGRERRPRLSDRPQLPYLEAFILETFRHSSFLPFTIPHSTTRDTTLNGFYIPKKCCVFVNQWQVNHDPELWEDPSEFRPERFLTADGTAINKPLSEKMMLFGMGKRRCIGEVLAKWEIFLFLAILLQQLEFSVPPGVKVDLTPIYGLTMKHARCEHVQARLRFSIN

In paper PMC5454994, “Assembly of Hepatocyte Spheroids Using Magnetic 3D Cell Culture for CYP450 Inhibition/Induction” (International Journal of Molecular Sciences, 2017):

Biological target: CYP1A2 (Homo sapiens, UniProt P05177)
Experiment: CYP1A2 activity (P450-Glo, Luciferin-1A2) in primary human hepatocyte spheroids and monolayers after 72 h drug exposure
Settings: primary human hepatocytes, 72 h exposure, normalized to control

For O=c1cc(-c2ccccc2)oc2c1ccc1ccccc12 [α-napthoflavone], the “fold inhibition of CYP1A2 activity, spheroids compared to monolayers” value was “greater fold inhibition in spheroids compared to monolayers”.
